{"sequences": {"note": "Sequences of proteins named here, by UniProt entry; tags and fusion partners are left off.", "UniProt P47898, whole entry, looked up": "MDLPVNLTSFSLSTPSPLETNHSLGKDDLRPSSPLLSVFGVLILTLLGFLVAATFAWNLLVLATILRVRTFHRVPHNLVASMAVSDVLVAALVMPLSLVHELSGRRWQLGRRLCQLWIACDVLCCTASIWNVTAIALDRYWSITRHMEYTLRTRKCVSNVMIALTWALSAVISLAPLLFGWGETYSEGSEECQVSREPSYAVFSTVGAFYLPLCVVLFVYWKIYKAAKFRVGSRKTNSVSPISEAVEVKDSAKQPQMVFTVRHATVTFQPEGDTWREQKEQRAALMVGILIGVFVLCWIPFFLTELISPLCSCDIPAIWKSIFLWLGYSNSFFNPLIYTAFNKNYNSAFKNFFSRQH"}, "source": "PubChem BioAssay AID504634", "about": "(The Scripps Research Institute Molecular Screening Center, 2011)", "note": "The entries are a selection whose mix differs from that of the whole data set. Calls of active or inactive are those of the source. Rule as the data show it: active = inhibition mostly above about 23% (no sharp cut-off); inactive = mostly below about 18%.", "data": [{"biological_target": "5-hydroxytryptamine receptor 5A (Homo sapiens) (UniProt P47898)", "assay": "HTR5A inverse agonists in luminescence cell assay, primary screen, counter-screen for OPRM1-OPRD1 heterodimer inverse agonist project, full-deck HTS (AID 504634);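 also: 0% = cells with DMSO and 100% = no-cell wells with DMSO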", "settings": "HTR5A cell line, inverse agonism, at 9.3 µM, active compounds read high", "values": [{"compound": "CCCC(=O)Nc1ccc2c(c1)nc1n2CCN(C2CCCCC2)C1", "inhibition": "inactive: 4.68%"}, {"compound": "O=C(Cn1c(CO)nc2ccccc21)Nc1cc(C(F)(F)F)ccc1N1CCOCC1", "inhibition": "inactive: 1.51%"}, {"compound": "CCN(C(=O)Cn1c(Cl)nc2c1c(=O)n(C)c(=O)n2C)C1CCCCC1", "inhibition": "inactive: -0.44%"}, {"compound": "Cc1ccc(NC(=O)Cn2c(/C=C/c3ccccc3)nc3ccccc32)cc1C", "inhibition": "inactive: -12.1%"}, {"compound": "CN(C)Cc1ccc(-c2nc3cccc4c3n2CCNC4=O)cc1", "inhibition": "inactive: -36.2%"}, {"compound": "COc1ccc(-c2ccc3c(c2)[C@@H]2C[C@H](N(C)C(=O)C(C)(C)C)[C@H]([C@H](C)O)C(=O)N2CC3)cc1", "inhibition": "inactive: -1.49%"}, {"compound": "Cc1ccc(-c2csc(N3CCC[C@@H]3C(=O)NCCn3c(-c4ccncc4)nc4ccccc43)n2)cc1", "inhibition": "inactive: -51.9%"}, {"compound": "O=C(Cn1cnc2ccccc21)N/N=C/c1ccccc1", "inhibition": "inactive: 7.08%"}, {"compound": "CCOC(=O)Cn1c(=O)oc2cc(S(=O)(=O)N3CCn4c3nc3ccccc34)ccc21", "inhibition": "inactive: -13.7%"}, {"compound": "CC(C)[C@H](NC(=O)N1CCn2c1nc1ccccc12)C(=O)N[C@@H](Cc1ccccc1)C(=O)O", "inhibition": "inactive: 21.3%"}, {"compound": "CCc1ccc(NC(=O)Cn2cnc3c(=O)n(C)c(=O)n(C)c32)cc1", "inhibition": "inactive: 2.57%"}, {"compound": "CCS(=O)(=O)c1nc2ccccc2n1CC(=O)N1CCCCC1", "inhibition": "inactive: 9.76%"}, {"compound": "CCC(C(=O)NC1CCCCC1)n1c(SCc2cccc(F)c2)nc2ccncc21", "note": "(stereo not drawn)", "inhibition": "inactive: -2.92%"}, {"compound": "CC(/C=N/NC(=O)Cn1cnc2c1c(=O)n(C)c(=O)n2C)=C\\c1ccccc1", "inhibition": "inactive: -13.2%"}, {"compound": "CC(C)c1ccccc1NC(=O)Cn1c(-c2ccccc2Cl)nc2ccccc21", "inhibition": "inactive: 8.22%"}, {"compound": "CC(C)C[C@H](NC(=O)N1CCn2c1nc1ccccc12)C(=O)N[C@H](Cc1ccccc1)C(=O)O", "inhibition": "inactive: 1.77%"}, {"compound": "c1ccc(CNc2nc3ccccc3n2CCN2CCOCC2)nc1", "inhibition": "inactive: 1.2%"}, {"compound": "Cn1c(=O)n(CC(=O)N2CCOCC2)c2ccccc21", "inhibition": "inactive: 5.64%"}, {"compound": "O=P(Nc1nccs1)(c1ccccc1)c1ccccc1", "inhibition": "inactive: 3.88%"}, {"compound": "CC(C)C(=O)NC(Sc1ccccc1)C(Cl)(Cl)Cl", "note": "(stereo not drawn)", "inhibition": "inactive: 14.2%"}, {"compound": "COc1ccc(OCC(O)Cn2c(=N)n(CCN3CCCCC3)c3ccccc32)cc1", "note": "(stereo not drawn)", "inhibition": "inactive: -18.6%"}, {"compound": "C[C@@H](NC(=O)Cn1cnc2c(OCc3ccccc3)ncnc21)c1cccc2ccccc12", "inhibition": "inactive: 7.23%"}, {"compound": "N#CCCN1CCn2c1nc1ccccc12", "inhibition": "inactive: -1.97%"}, {"compound": "O=C(Cn1cnc2c(OCc3ccccc3)ncnc21)NCC1CCCO1", "note": "(stereo not drawn)", "inhibition": "inactive: -3.61%"}, {"compound": "Cn1c(=O)c2ncn(CC(=O)N/N=C/c3ccco3)c2n(C)c1=O", "inhibition": "inactive: 15.3%"}, {"compound": "CC1CCCC(C)N1C(=O)Cn1c(SCC(=O)Nc2ccc3c(c2)OCO3)nc2ccccc21", "note": "(stereo not drawn)", "inhibition": "inactive: 3.37%"}, {"compound": "c1ccc2c(c1)nc1n2CCN1CCN1CCCC1", "inhibition": "inactive: -8.84%"}, {"compound": "Cn1c(=O)c2c(ncn2CC(=O)N2CCN(S(=O)(=O)c3ccccc3)CC2)n(C)c1=O", "inhibition": "inactive: -12.9%"}, {"compound": "CCOCCn1c(=O)c2c(nc3n2CCN3c2ccc(C)cc2)n(C)c1=O", "inhibition": "inactive: -14.4%"}, {"compound": "Cc1ccccc1Oc1ccc2c(c1)[C@@H]1C[C@H](N(C)C(=O)NC3CCCCC3)[C@H]([C@H](C)O)C(=O)N1CC2", "inhibition": "inactive: -0.23%"}, {"compound": "CCN(CC)CCn1c(=N)n(CC(O)c2ccc(OC)c(OC)c2)c2ccccc21", "note": "(stereo not drawn)", "inhibition": "inactive: -11.2%"}, {"compound": "O=C(c1cccs1)N1CCn2c1nc1ccccc12", "inhibition": "inactive: 9.36%"}, {"compound": "CC(C)C[C@H](NC(=O)N1CCn2c1nc1ccccc12)C(=O)NC1CC1", "inhibition": "inactive: -15.6%"}, {"compound": "COc1ccc(NC(=O)CN(C)C(=O)Cn2cnc3c2c(=O)n(C)c(=O)n3C)cc1", "inhibition": "inactive: 18.6%"}, {"compound": "Cn1c(=O)c2c(nc(CN3CCN(Cc4ccccc4)CC3)n2CCN2CCOCC2)n(C)c1=O", "inhibition": "inactive: -28.7%"}, {"compound": "CC(NC(=O)Cn1c(NCCO)nc2ccccc21)c1ccccc1", "note": "(stereo not drawn)", "inhibition": "inactive: 0.36%"}, {"compound": "COC(=O)[C@H](Cc1ccccc1)NC(=O)Cn1cnc2c(NCc3ccccc3)ncnc21", "inhibition": "inactive: -2.39%"}, {"compound": "CCC(C)N(C(=O)Cn1c(Cl)nc2c1c(=O)n(C)c(=O)n2C)C1CCS(=O)(=O)C1", "note": "(stereo not drawn)", "inhibition": "inactive: 1.38%"}, {"compound": "Brc1cccc(CNc2nc3ccccc3n2CCN2CCCCC2)c1", "inhibition": "inactive: 17.6%"}, {"compound": "O=C(Cn1cnc2ccccc21)Nc1ccccc1-c1ccccc1", "inhibition": "inactive: -30.8%"}, {"compound": "COc1ccc(OC)c(CNc2nc3ccccc3n2CCN2CCCCC2)c1", "inhibition": "inactive: 2.98%"}, {"compound": "Cc1ccc2c(c1)C1CN(C)CCC1N2S(=O)(=O)c1ccc(C(C)C)cc1", "note": "(stereo not drawn)", "inhibition": "inactive: 12%"}, {"compound": "CCSc1nc2ccccc2n1CC(N)=O", "inhibition": "inactive: 23%"}, {"compound": "O=C(Cn1cnc2ccccc21)N/N=C/c1ccco1", "inhibition": "inactive: -1.07%"}, {"compound": "COCCN1CCn2c(nc3cc(NS(C)(=O)=O)ccc32)C1", "inhibition": "inactive: -21.2%"}, {"compound": "COc1ccc(CNc2nc3ccccc3n2CCN2CCCCC2)cc1", "inhibition": "inactive: -5.16%"}, {"compound": "Cc1cccc(OCC(O)Cn2c(=N)n(CCN3CCCCC3)c3ccccc32)c1", "note": "(stereo not drawn)", "inhibition": "inactive: -17.5%"}, {"compound": "Cn1c(=O)[nH]c(=O)c2c1nc(N1CCCCCC1)n2CC(N)=O", "inhibition": "inactive: 0.98%"}, {"compound": "Nc1nonc1-c1nc2ccccc2n1CC(=O)N/N=C/c1ccc(-c2ccccc2C(=O)O)o1", "inhibition": "inactive: 5.19%"}, {"compound": "COc1ccc(-c2nn(-c3ccccc3)cc2C(=O)N2c3ccc(C)cc3C3CN(C)CCC32)cc1", "note": "(stereo not drawn)", "inhibition": "inactive: 23.8%"}, {"compound": "Cn1c(=O)c2c(nc(CN3CCN(C(c4ccccc4)c4ccccc4)CC3)n2CC(N)=O)n(C)c1=O", "inhibition": "inactive: 9.02%"}, {"compound": "CC(=O)NC(C)c1nc2ccccc2n1CC(=O)NC(C)CCc1ccccc1", "note": "(stereo not drawn)", "inhibition": "inactive: -7.15%"}, {"compound": "CCOC(=O)c1cccc(NC(=O)Cn2cnc3c2c(=O)n(C)c(=O)n3C)c1", "inhibition": "inactive: -3.95%"}, {"compound": "CCc1cccc(C)c1NC(=O)CSc1nc2ccccc2n1CC(=O)N(C)C", "inhibition": "inactive: 9%"}, {"compound": "CCN1C(=O)CC(n2c(C)nc3ccccc32)C1=O", "note": "(stereo not drawn)", "inhibition": "inactive: 15.3%"}, {"compound": "O=S(=O)(c1ccc(Cl)cc1)N1CCn2c1nc1ccccc12", "inhibition": "inactive: 0.53%"}, {"compound": "CSCC[C@H](NC(=O)N1CCn2c1nc1ccccc12)C(=O)NCc1ccc2c(c1)OCO2", "inhibition": "inactive: 17.2%"}, {"compound": "CC(/C=N/NC(=O)Cn1cnc2ccccc21)=C\\c1ccccc1", "inhibition": "inactive: -11.2%"}, {"compound": "COc1ccc(Cc2nnc(NC(=O)Cn3cnc4c3c(=O)n(C)c(=O)n4C)s2)cc1OC", "inhibition": "inactive: -15.6%"}, {"compound": "CCCn1c(=O)c2c(nc3n2CCN3Cc2ccco2)n(C)c1=O", "inhibition": "inactive: 0.07%"}, {"compound": "O=S(=O)(c1ccccc1)c1nnn2c1nc(NC1CCN(Cc3ccccc3)CC1)c1cc(Cl)ccc12", "inhibition": "inactive: 9.63%"}, {"compound": "CCN(CC)c1ccc(NC(=O)Cn2c(C(C)NC(=O)c3ccc(C)cc3)nc3ccccc32)cc1", "note": "(stereo not drawn)", "inhibition": "inactive: 0.92%"}, {"compound": "CSCC[C@H](NC(=O)N1CCn2c1nc1ccccc12)C(=O)NC1CC1", "inhibition": "inactive: -6.89%"}, {"compound": "O=C(NC1CCCCC1)C(c1ccccc1)N(Cc1ccco1)C(=O)Cn1cnc2ccccc21", "note": "(stereo not drawn)", "inhibition": "inactive: -14.8%"}, {"compound": "Cc1ccc(C(=O)Cn2c(=N)n(CCN3CCOCC3)c3ccccc32)cc1", "inhibition": "inactive: -4.77%"}, {"compound": "CCOc1ccc(CNc2nc3ccccc3n2CCN2CCOCC2)cc1", "inhibition": "inactive: 25.3%"}, {"compound": "O=[N+]([O-])c1cc([N+](=O)[O-])c(CCNc2ccccc2)c([N+](=O)[O-])c1", "inhibition": "inactive: -38%"}, {"compound": "CCc1nc2c(n1)c1c(non1O)c1c2no[n+]1[O-]", "inhibition": "inactive: 6.71%"}, {"compound": "Cc1csc2ncnc(NC3CCN(Cc4ccccc4)CC3)c12", "inhibition": "inactive: -15.6%"}, {"compound": "Cn1c(=O)[nH]c(=O)c2c1nc(CN1CCN(Cc3ccccc3)CC1)n2CC(N)=O", "inhibition": "inactive: 5.26%"}, {"compound": "Cc1ccc(OCC(O)Cn2c(=N)n(CCN3CCOCC3)c3ccccc32)cc1", "note": "(stereo not drawn)", "inhibition": "inactive: -17.9%"}, {"compound": "COC(=O)c1ccc(NC(=O)Cn2c(-c3nonc3N)nc3ccccc32)cc1", "inhibition": "inactive: -4.6%"}, {"compound": "N=c1n(CCN2CCCCC2)c2ccccc2n1CC(O)COc1ccccc1", "note": "(stereo not drawn)", "inhibition": "inactive: 14.3%"}, {"compound": "Cc1ccc(NP(=O)(Oc2ccccc2)Oc2ccccc2)nc1", "inhibition": "inactive: 6.51%"}, {"compound": "O=[N+]([O-])c1ccc(NC2CCN(Cc3ccccc3)CC2)c([N+](=O)[O-])c1", "inhibition": "inactive: -0.72%"}, {"compound": "CC1CC(C)CN(C(=O)Cn2c(-c3nonc3N)nc3ccccc32)C1", "note": "(stereo not drawn)", "inhibition": "inactive: 6.47%"}, {"compound": "Cc1nc2ccccc2n1CC(=O)N/N=C/c1cccs1", "inhibition": "inactive: 5.63%"}, {"compound": "COC(=O)c1ccccc1NC(=O)Cn1cnc2cc(C)c(C)cc21", "inhibition": "inactive: 19.6%"}, {"compound": "CSCC[C@H](NC(=O)N1CCn2c1nc1ccccc12)C(=O)N[C@H](Cc1ccccc1)C(=O)O", "inhibition": "inactive: -43.9%"}, {"compound": "CCOc1ccccc1OCC(=O)NNC(=O)Cn1cnc2c1c(=O)n(C)c(=O)n2C", "inhibition": "inactive: -5.87%"}, {"compound": "CC1CCCCC1NC(=O)Cn1cnc2c1c(=O)n(C)c(=O)n2C", "note": "(stereo not drawn)", "inhibition": "inactive: -16.5%"}, {"compound": "Cc1ccccc1Cn1c(=O)c2c(nc3n2CCN3Cc2ccco2)n(C)c1=O", "inhibition": "inactive: -17.8%"}, {"compound": "Nc1nonc1-c1nc2ccccc2n1CC(=O)N1CCCCC1", "inhibition": "inactive: 4.62%"}, {"compound": "Cc1ccc(C)c(CN2CCC(n3nnc4cc(F)ccc43)CC2)c1", "inhibition": "inactive: 0.25%"}, {"compound": "COC(=O)c1sccc1NC(=O)Cn1cnc2c1c(=O)n(C)c(=O)n2C", "inhibition": "inactive: 14.3%"}, {"compound": "N#CCCNC(=O)Cn1c(COc2ccc(Cl)cc2)nc2ccccc21", "inhibition": "inactive: -10.6%"}, {"compound": "Cn1c(=O)[nH]c(=O)c2c1nc1n2CCN1Cc1ccccc1", "inhibition": "inactive: -17.6%"}, {"compound": "Cn1ncc([N+](=O)[O-])c1C(=O)Nc1nc2ccccc2n1CCN1CCCCC1", "inhibition": "inactive: -9.01%"}]}]}
